{"source": "patent US6384208B1", "about": "“Sequence directed DNA binding molecules compositions and methods” (Genelabs Technologies, Inc., priority 1991, dated 2002)", "system": "256 different 4 bp sequences flanking the UL9 recognition site", "settings": "10 μM distamycin for 30 minutes", "note": "Like-named read-outs stand apart in the source and are kept apart here."}
{"substance": "Distamycin A", "values": [{"measurement": "Rank of test oligonucleotide (1 to 256, by average rank in 4 experiments)", "setting": "test sequence AAAC", "value": 18}, {"measurement": "Rank of test oligonucleotide (1 to 256, by average rank in 4 experiments)", "setting": "test sequence AAAG", "value": 13}, {"measurement": "Rank of test oligonucleotide (1 to 256, by average rank in 4 experiments)", "setting": "test sequence AACC", "value": 14}, {"measurement": "Rank of test oligonucleotide (1 to 256, by average rank in 4 experiments)", "setting": "test sequence AACG", "value": 5}, {"measurement": "Rank of test oligonucleotide (1 to 256, by average rank in 4 experiments)", "setting": "test sequence AAGC", "value": 74}, {"measurement": "Rank of test oligonucleotide (1 to 256, by average rank in 4 experiments)", "setting": "test sequence AAGG", "value": 20}, {"measurement": "Rank of test oligonucleotide (1 to 256, by average rank in 4 experiments)", "setting": "test sequence AATC", "value": 44}, {"measurement": "Rank of test oligonucleotide (1 to 256, by average rank in 4 experiments)", "setting": "test sequence ACAC", "value": 48}, {"measurement": "Rank of test oligonucleotide (1 to 256, by average rank in 4 experiments)", "setting": "test sequence ACAG", "value": 73}, {"measurement": "Rank of test oligonucleotide (1 to 256, by average rank in 4 experiments)", "setting": "test sequence ACCC", "value": 26}, {"measurement": "Rank of test oligonucleotide (1 to 256, by average rank in 4 experiments)", "setting": "test sequence ACCG", "value": 32}, {"measurement": "Rank of test oligonucleotide (1 to 256, by average rank in 4 experiments)", "setting": "test sequence ACGC", "value": 25}, {"measurement": "Rank of test oligonucleotide (1 to 256, by average rank in 4 experiments)", "setting": "test sequence ACGG", "value": 8}, {"measurement": "Rank of test oligonucleotide (1 to 256, by average rank in 4 experiments)", "setting": "test sequence AGAC", "value": 17}, {"measurement": "Rank of test oligonucleotide (1 to 256, by average rank in 4 experiments)", "setting": "test sequence AGAG", "value": 46}, {"measurement": "Rank of test oligonucleotide (1 to 256, by average rank in 4 experiments)", "setting": "test sequence AGCC", "value": 22}, {"measurement": "Rank of test oligonucleotide (1 to 256, by average rank in 4 experiments)", "setting": "test sequence AGCG", "value": 21}, {"measurement": "Rank of test oligonucleotide (1 to 256, by average rank in 4 experiments)", "setting": "test sequence AGGC", "value": 30}, {"measurement": "Rank of test oligonucleotide (1 to 256, by average rank in 4 experiments)", "setting": "test sequence AGGG", "value": 28}, {"measurement": "Rank of test oligonucleotide (1 to 256, by average rank in 4 experiments)", "setting": "test sequence AGTC", "value": 35}, {"measurement": "Rank of test oligonucleotide (1 to 256, by average rank in 4 experiments)", "setting": "test sequence AGTG", "value": 49}, {"measurement": "Rank of test oligonucleotide (1 to 256, by average rank in 4 experiments)", "setting": "test sequence ATCC", "value": 19}, {"measurement": "Rank of test oligonucleotide (1 to 256, by average rank in 4 experiments)", "setting": "test sequence ATCG", "value": 39}, {"measurement": "Rank of test oligonucleotide (1 to 256, by average rank in 4 experiments)", "setting": "test sequence CAAC", "value": 16}, {"measurement": "Rank of test oligonucleotide (1 to 256, by average rank in 4 experiments)", "setting": "test sequence CGAA (complement of TTCG)", "value": 216}, {"measurement": "Rank of test oligonucleotide (1 to 256, by average rank in 4 experiments)", "setting": "test sequence CGTT (complement of AACG)", "value": 144}, {"measurement": "Rank of test oligonucleotide (1 to 256, by average rank in 4 experiments)", "setting": "test sequence CTCG", "value": 38}, {"measurement": "Rank of test oligonucleotide (1 to 256, by average rank in 4 experiments)", "setting": "test sequence GAAA (complement of TTTC)", "value": 235}, {"measurement": "Rank of test oligonucleotide (1 to 256, by average rank in 4 experiments)", "setting": "test sequence GATA (complement of TATC)", "value": 213}, {"measurement": "Rank of test oligonucleotide (1 to 256, by average rank in 4 experiments)", "setting": "test sequence GGAA (complement of TTCC)", "value": 42}, {"measurement": "Rank of test oligonucleotide (1 to 256, by average rank in 4 experiments)", "setting": "test sequence GGTA (complement of TACC)", "value": 185}, {"measurement": "Rank of test oligonucleotide (1 to 256, by average rank in 4 experiments)", "setting": "test sequence GTAA (complement of TTAC)", "value": 244}, {"measurement": "Rank of test oligonucleotide (1 to 256, by average rank in 4 experiments)", "setting": "test sequence TAAC", "value": 12}, {"measurement": "Rank of test oligonucleotide (1 to 256, by average rank in 4 experiments)", "setting": "test sequence TAAG", "value": 23}, {"measurement": "Rank of test oligonucleotide (1 to 256, by average rank in 4 experiments)", "setting": "test sequence TACC", "value": 3}, {"measurement": "Rank of test oligonucleotide (1 to 256, by average rank in 4 experiments)", "setting": "test sequence TACG", "value": 15}, {"measurement": "Rank of test oligonucleotide (1 to 256, by average rank in 4 experiments)", "setting": "test sequence TAGC", "value": 9}, {"measurement": "Rank of test oligonucleotide (1 to 256, by average rank in 4 experiments)", "setting": "test sequence TAGG", "value": 58}, {"measurement": "Rank of test oligonucleotide (1 to 256, by average rank in 4 experiments)", "setting": "test sequence TATC", "value": 4}, {"measurement": "Rank of test oligonucleotide (1 to 256, by average rank in 4 experiments)", "setting": "test sequence TATG", "value": 31}, {"measurement": "Rank of test oligonucleotide (1 to 256, by average rank in 4 experiments)", "setting": "test sequence TCAC", "value": 52}, {"measurement": "Rank of test oligonucleotide (1 to 256, by average rank in 4 experiments)", "setting": "test sequence TCCC", "value": 29}, {"measurement": "Rank of test oligonucleotide (1 to 256, by average rank in 4 experiments)", "setting": "test sequence TCGG", "value": 34}, {"measurement": "Rank of test oligonucleotide (1 to 256, by average rank in 4 experiments)", "setting": "test sequence TTAA", "value": 47}, {"measurement": "Rank of test oligonucleotide (1 to 256, by average rank in 4 experiments)", "setting": "test sequence TTAC", "value": 2}, {"measurement": "Rank of test oligonucleotide (1 to 256, by average rank in 4 experiments)", "setting": "test sequence TTAG", "value": 10}, {"measurement": "Rank of test oligonucleotide (1 to 256, by average rank in 4 experiments)", "setting": "test sequence TTCG", "value": 6}, {"measurement": "Rank of test oligonucleotide (1 to 256, by average rank in 4 experiments)", "setting": "test sequence TTCT", "value": 24}, {"measurement": "Rank of test oligonucleotide (1 to 256, by average rank in 4 experiments)", "setting": "test sequence TTGC", "value": 37}, {"measurement": "Rank of test oligonucleotide (1 to 256, by average rank in 4 experiments)", "setting": "test sequence TTGG", "value": 11}, {"measurement": "Rank of test oligonucleotide (1 to 256, by average rank in 4 experiments)", "setting": "test sequence TTTG", "value": 43}]}
